Protein sequences, listed by entry. Tags and fused reporters are not part of them.
UniProt P04049, whole entry Y340E/Y341E: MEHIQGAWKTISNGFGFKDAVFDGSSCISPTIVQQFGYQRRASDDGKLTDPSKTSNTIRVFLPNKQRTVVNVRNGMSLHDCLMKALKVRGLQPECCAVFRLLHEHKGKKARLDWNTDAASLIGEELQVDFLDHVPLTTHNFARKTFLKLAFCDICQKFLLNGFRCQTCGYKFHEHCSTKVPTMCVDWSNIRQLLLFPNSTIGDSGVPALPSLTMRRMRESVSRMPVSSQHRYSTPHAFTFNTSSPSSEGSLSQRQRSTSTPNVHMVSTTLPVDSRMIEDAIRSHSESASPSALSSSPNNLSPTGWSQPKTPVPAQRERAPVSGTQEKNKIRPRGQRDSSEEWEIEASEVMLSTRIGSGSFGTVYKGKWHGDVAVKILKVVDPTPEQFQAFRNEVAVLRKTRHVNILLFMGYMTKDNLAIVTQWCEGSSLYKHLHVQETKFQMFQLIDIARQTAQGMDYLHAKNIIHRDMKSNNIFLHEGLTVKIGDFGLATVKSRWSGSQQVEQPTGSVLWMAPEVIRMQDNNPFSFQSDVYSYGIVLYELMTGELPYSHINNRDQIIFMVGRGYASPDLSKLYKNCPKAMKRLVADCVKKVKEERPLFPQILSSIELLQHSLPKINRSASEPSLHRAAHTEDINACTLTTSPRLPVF

The target in the first assay is C-Raf FL (full-length C-Raf protein, Y340E and Y341E activating mutations) (Homo sapiens (Human), UniProt P04049, Y340E/Y341E). Format: biochemical. To be noted: AlphaScreen, 60 min pre-incubation, 1 hour reaction; read-out: c-Raf FL IC-50.
Consider `CCOc1nnc(-c2cc(NC(=O)c3ccnc(C(C)(C)O)c3)ccc2C)cc1N1CCOCC1` [Example 569, N-(3-(6-ethoxy-5-morpholinopyridazin-3-yl)-4-methylphenyl)-2-(2-hydroxypropan-2-yl)isonicotinamide], for which the IC50 turned out to be 800 pM.

With `CCC(F)(F)c1cc(C(=O)Nc2cnc(C)c(-c3cc(N4CCOCC4)c(OC)nn3)c2)ccn1` [Example 607, 2-(1,1-difluoropropyl)-N-(5-(6-methoxy-5-morpholinopyridazin-3-yl)-6-methylpyridin-3-yl)isonicotinamide], the IC50 came out at 1500 pM.

Take `Cc1ccc(NC(=O)c2ccnc(C(C)(C)O)c2)cc1-c1cc(N2CCOCC2)n(C)c(=O)c1` [Example 483, 2-(2-hydroxypropan-2-yl)-N-(4-methyl-3-(1-methyl-6-morpholino-2-oxo-1,2-dihydropyridin-4-yl)phenyl)isonicotinamide]: the IC50 stood at 900 pM.

In the case of `COCCOc1nnc(-c2cc(NC(=O)c3ccnc(C(C)(C)F)c3)ccc2C)cc1N1CCOCC1` [Example 600, 2-(2-fluoropropan-2-yl)-N-(3-(6-(2-methoxyethoxy)-5-morpholinopyridazin-3-yl)-4-methylphenyl)isonicotinamide], the IC50 amounted to 300 pM.

On to `Cc1ccc(NC(=O)c2ccnc(C(C)(C)C#N)c2)cc1-c1cc(N2CCOCC2)nc(N(C)C)n1` [Example 755, 2-(2-cyanopropan-2-yl)-N-(3-(2-(dimethylamino)-6-morpholinopyrimidin-4-yl)-4-methylphenyl)isonicotinamide], for which the IC50 came out at 7200 pM.

In the case of `CCC(F)(F)c1cc(C(=O)Nc2ccc(C)c(-c3cc(N4CCOCC4)c(OCCO)nn3)c2)ccn1` [Example 589, 2-(1,1-difluoropropyl)-N-(3-(6-(2-hydroxyethoxy)-5-morpholinopyridazin-3-yl)-4-methylphenyl)isonicotinamide], the IC50 came to 400 pM.

Staying with this assay, now noted: AlphaScreen, 60 min pre-incubation, reaction 1 hour at room temperature; read-out: c-Raf FL IC-50.
With `Cc1ccc(NC(=O)c2cccc(C(F)F)c2)cc1-c1cc(NCCO)nc(N2CCOCC2)c1` [Example 1036, 3-(difluoromethyl)-N-(3-(2-((2-hydroxyethyl)amino)-6-morpholinopyridin-4-yl)-4-methylphenyl)benzamide], the IC50 was 150 pM. `Cc1ccc(NC(=O)c2cc(C(F)(F)F)ccn2)cc1-c1cc(OCCO)nc(N2CCOCC2)c1` [Example 1163, N-(3-(2-(2-hydroxyethoxy)-6-morpholinopyridin-4-yl)-4-methylphenyl)-4-(trifluoromethyl)picolinamide]: the IC50 came out at 200 pM. On the same count and under the same terms, the value for `Cc1ccc(NC(=O)c2cc(C(C)(C)C#N)ccn2)cc1-c1cnc(OC(C)C)c(N2CCOCC2)c1` [Example 948, 4-(2-cyanopropan-2-yl)-N-(3-(6-isopropoxy-5-morpholinopyridin-3-yl)-4-methylphenyl)picolinamide] was 640 pM; that for `CCC(F)(F)c1cc(C(=O)Nc2cnc(C)c(-c3cc(C4COCCO4)nc(N4CCOCC4)c3)c2)ccn1` (stereo not drawn) [Example 1168, N-(2′-(1,4-dioxan-2-yl)-2-methyl-6′-morpholino-[3,4′-bipyridin]-5-yl)-2-(1,1-difluoropropyl)isonicotinamide] was 1210 pM; that for `Cc1ncc(NC(=O)c2ccnc(C(F)(F)F)c2)cc1-c1cc(N2CCOCC2)nc(N2CCOCC2)c1` [Example 1120, N-(2-methyl-2′,6′-dimorpholino-[3,4′-bipyridin]-5-yl)-2-(trifluoromethyl)isonicotinamide] was 280 pM.

Turning to `Cc1ncc(NC(=O)c2ccnc(C(C)(C)O)c2)cc1-c1cc(N2CCOCC2)c2nccn2n1` [Example 870, 2-(2-hydroxypropan-2-yl)-N-(6-methyl-5-(8-morpholinoimidazo[1,2-b]pyridazin-6-yl)pyridin-3-yl)isonicotinamide], the IC50 turned out to be 1500 pM.

With `Cc1ncc(NC(=O)c2cccc(C(F)(F)F)c2)cc1-c1cc(N2CCOCC2)c(S(C)(=O)=O)nn1` [Example 919, N-(6-methyl-5-(6-(methylsulfonyl)-5-morpholinopyridazin-3-yl)pyridin-3-yl)-3-(trifluoromethyl)benzamide], the IC50 came to 880 pM. `Cc1ncc(NC(=O)c2cccc(C(F)(F)F)c2)cc1-c1cnc(OCC2COCCO2)c(N2CCOCC2)c1` (stereo not drawn) [Example 992]: the IC50 was found to be 970 pM. On the same count and under the same terms, then `Cc1ccc(NC(=O)c2ccnc(C(C)C)c2)cc1-c1cc(N2CCOCC2)nc(N2CC(O)C2)c1` [Example 1069, N-(3-(2-(3-hydroxyazetidin-1-yl)-6-morpholinopyridin-4-yl)-4-methylphenyl)-2-isopropylisonicotinamide], with 530 pM; and `Cc1ccc(NC(=O)c2ccnc(C(F)F)c2)cc1-c1cc(N2CCOCC2)nc(N2CC(O)C2)c1` [Example 1067, 2-(difluoromethyl)-N-(3-(2-(3-hydroxyazetidin-1-yl)-6-morpholinopyridin-4-yl)-4-methylphenyl)isonicotinamide], with 270 pM; and `Cc1ccc(NC(=O)c2ccnc(C(C)(C)C#N)c2)cc1-c1cc(NC[C@@H](C)O)nc(N2CCOCC2)n1` [Example 1026, (R)-2-(2-cyanopropan-2-yl)-N-(3-(6-((2-hydroxypropyl)amino)-2-morpholinopyrimidin-4-yl)-4-methylphenyl)isonicotinamide], with 2900 pM. For `Cc1ncc(NC(=O)c2ccnc(C(C)(C)O)c2)cc1-c1cnc(OC2CCOCC2)c(N2CCOCC2)c1` [Example 939, 2-(2-hydroxypropan-2-yl)-N-(2-methyl-5′-morpholino-6′-((tetrahydro-2H-pyran-4-yl)oxy)-[3,3′-bipyridin]-5-yl)isonicotinamide], the IC50 worked out at 6840 pM.

Consider `CCC(F)(F)c1cc(C(=O)Nc2cnc(C)c(-c3cc(NCCO)nc(N4CCOCC4)c3)c2)ccn1` [Example 1058, 2-(1,1-difluoropropyl)-N-(2′-((2-hydroxyethyl)amino)-2-methyl-6′-morpholino-[3,4′-bipyridin]-5-yl)isonicotinamide], for which the IC50 amounted to 1770 pM.

The same assay, now with this note: Table 2; AlphaScreen, 1 hour reaction; read-out: c-Raf FL IC-50.
Take `Cc1ccc(NC(=O)c2cccc(C(F)(F)F)c2)cc1-c1nc(N2CCOCC2)nc(N2CCOCC2)c1C` [Example 57, N-(4-methyl-3-(5-methyl-2,6-dimorpholinopyrimidin-4-yl)phenyl)-3-(trifluoromethyl)benzamide]: the IC50 came out at 200 pM.

As for `Cc1ccc(NC(=O)c2cccc(C(F)(F)F)c2)cc1-c1cc(N2CCOCC2)nc(S(C)(=O)=O)n1` [Example 27, N-(4-methyl-3-(2-(methylsulfonyl)-6-morpholinopyrimidin-4-yl)phenyl)-3-(trifluoromethyl)benzamide], the IC50 turned out to be 100 pM. As to `CCOc1ncc(-c2cc(NC(=O)c3ccnc(S(C)(=O)=O)c3)ccc2C)cc1N1CCOCC1` [Example 232, N-(3-(6-ethoxy-5-morpholinopyridin-3-yl)-4-methylphenyl)-2-(methylsulfonyl)isonicotinamide], the IC50 is 300 pM. Still for that read-out and setting: then `Cc1ccc(C(=O)Nc2cccc(C(C)(C)C#N)c2)cc1-c1cc(N2CCOCC2)c(=O)n(C)c1` [Example 431, N-(3-(2-cyanopropan-2-yl)phenyl)-4-methyl-3-(1-methyl-5-morpholino-6-oxo-1,6-dihydropyridin-3-yl)benzamide], with 1100 pM.

The assay is the same for the next values; noted with them: read-out: c-Raf FL IC-50.
On to `Cc1ccc(NC(=O)c2ccnc(C(C)(C)F)c2)cc1-c1cc(N2C3CCC2COC3)c(=O)n(C)n1` [Example 668, N-(3-(5-(3-oxa-8-azabicyclo[3.2.1]octan-8-yl)-1-methyl-6-oxo-1,6-dihydropyridazin-3-yl)-4-methylphenyl)-2-(2-fluoropropan-2-yl)isonicotinamide], for which the IC50 came to 1200 pM.

The values above are taken from US9694016B2 (Novartis AG, priority 2013, dated 2017).
